Patent publication US4264492A, “Enkephalin-like compounds in bovine adrenal medulla” (Hoffmann-La Roche Inc., priority 1979, dated 1981)

Amino acid sequences for entries named in this document (tags omitted).
UniProt P32300, whole entry: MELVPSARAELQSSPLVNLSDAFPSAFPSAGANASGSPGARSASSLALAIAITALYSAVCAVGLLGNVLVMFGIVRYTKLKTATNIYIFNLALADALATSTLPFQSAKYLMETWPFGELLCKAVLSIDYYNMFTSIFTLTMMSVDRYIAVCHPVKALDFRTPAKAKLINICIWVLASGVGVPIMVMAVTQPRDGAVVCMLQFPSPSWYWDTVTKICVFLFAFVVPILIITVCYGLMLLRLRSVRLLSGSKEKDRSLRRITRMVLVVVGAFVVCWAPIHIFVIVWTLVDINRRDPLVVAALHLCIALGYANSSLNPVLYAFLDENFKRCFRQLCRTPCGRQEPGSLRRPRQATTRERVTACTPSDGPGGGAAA

Molecular target: T1, neuroblastoma x glioma hybrid cells (Mus musculus, UniProt P32300)
T1 construct: The radioreceptor assay employed neuroblastoma x glioma hybrid cells; endogenous in cells; host or cells: neuroblastoma x glioma hybrid cells
Experiment: Radioreceptor assay (opioid activity) with ^3 H-Leuenkephalin as the competing ligand
Assay type: binding
Details: fractions from RP-18; 1.3 g wet weight of chromaffin granules isolated from 30 g of adrenal medulla

Leu-enkephalin [Leu-enk (std)]
Radioreceptor: 1.0 nmoles/fraction
